Experiments:
[1] = test system: serum IgG anti-estrogen antibodies; test: Competition ELISA: absorption of serum IgG anti-estrogen with specific and non-specific antigens; type: binding, human; conditions: for IgG level after absorption: absorption with 250 μg/mL, optical density 405 nm
Procedure: (§1) For this, microtiter plates were coated with hormones and blocked by the addition of 2% BSA in PBST. 100 μl of serum diluent buffer was added to all wells. […] After 60 minutes incubation 100 μl serum anti-estrogen or anti-progesterone was added to all wells. […] Results were calculated as percentage of inhibition in antigen-antibody reaction.
(§2) To examine whether antibodies to estrogen or progesterone are specific or cross-reactive, we performed competition ELISA by adding specific and non-specific antigens in liquid phase and examined prevention of serum antibody binding to the antigen in solid phase. […] For IgE anti-estrogen, this inhibition by estrogen-BSA was between 54-62%, and with progesterone-BSA, from 37-43%. […] This cross-reaction between estrogen and progesterone antibodies may be due to structural similarities between these two hormones.

[2] = test system: serum IgE anti-estrogen antibodies; test: Competition ELISA: absorption of serum IgE anti-estrogen with specific and non-specific antigens; type: binding, human; conditions: for IgE level after absorption: absorption with 250 μg/mL, optical density 405 nm
Procedure: as §1, §2

[3] = antigen in liquid phase, over the three sera

## human serum albumin [HSA]
[1]; [3]
  inhibition of anti-estrogen binding to estrogen (IgG): did not significantly absorb
[1]; serum sample 1, before absorption 1.83
  IgG level after absorption: 1.81
[1]; serum sample 2, before absorption 1.25
  IgG level after absorption: 1.19
[1]; serum sample 3, before absorption 0.76
  IgG level after absorption: 0.78
[2]; [3]
  inhibition of IgE anti-estrogen binding: did not significantly absorb
[2]; serum sample 1, before absorption 2.15
  IgE level after absorption: 2.11
[2]; serum sample 2, before absorption 1.66
  IgE level after absorption: 1.59
[2]; serum sample 3, before absorption 1.34
  IgE level after absorption: 1.21

Reference: patent publication US20060025390A1, “Treatment of hormone allergy and related symptoms and disorders” (priority 2004, published 2006)
